# Antibody variant affinities, Ab-14 light chain, assay 1

The measurements come from Engelhart et al. 2022 (doi:10.1038/s41597-022-01779-4) through the FLAb antibody collection.

Target peptide (SARS-CoV-2 spike, HR2 region): PDVDLGDISGINAS

Parent: Ab-14, a human scFv built as VH, three GGGGS repeats, VL. Only the CDRs of the light chain vary.
VH: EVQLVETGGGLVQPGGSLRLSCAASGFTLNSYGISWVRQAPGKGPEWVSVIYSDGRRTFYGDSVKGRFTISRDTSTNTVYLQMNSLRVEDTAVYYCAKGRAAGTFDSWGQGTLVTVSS
VL: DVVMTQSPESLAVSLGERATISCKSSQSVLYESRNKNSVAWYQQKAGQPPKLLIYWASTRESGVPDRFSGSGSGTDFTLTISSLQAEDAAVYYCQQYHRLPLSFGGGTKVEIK

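Phage display of a naive human antibody library on the peptide gave the parent. Library AAYL50 holds single substitutions and randomly drawn double and triple substitutions in the CDRs. Affinity was read by AlphaSeq, a pooled yeast mating assay with surface-displayed partners. The frequency of each diploid, read from paired DNA barcodes, reflects how well the two displayed proteins bind. Each replicate has its own calibration line, from reference interactions of the BCL2 family. There are three technical replicates.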

The parent's light chain CDRs are KSSQSVLYESRNKNSVA, WASTRES, QQYHRLPLS; each variant's own CDRs replace them letter for letter. All variants listed here change K36 of the VL, counted from its first residue. Values are log10 of the apparent Kd in nM; lower means stronger binding. The mean shown is taken over the replicates in which the pair was detected. "nd" marks a missing value. The strain was present, yet no cells mated with the target were sequenced in any replicate, which points to weak or no binding. In this assay the parent's reference entry averaged 0.65; its copy inside this library read 1.68. As a blank, each scFv also met three strains without target: over library AAYL50, 18% of these pairings were detected, typically at 4.19 and seldom below 2.99. The control count says in how many pairings with the empty strains this scFv gave a signal.

* KSSQSVLYESRNENSVT, WASTRES, QQYHRLPVS = nd (0 of 3 replicates; controls 0 of 9)
* KSSQSVLYESWNVNSVA, WASTRER, QQYHRLPLS = 1.13 (3 of 3 replicates; controls 1 of 9)
* KSSQSVLYESRNANSVA, WASTRIS, QQYHRLPLG = 3.80 (3 of 3 replicates; controls 4 of 9)
* KSSQSVLYESRNTNSNA, WASTREF, QQYHRLPLS = nd (0 of 3 replicates; controls 5 of 9)
* KSSQSVLYESRNRNSVA, WASTRRS, QQYHRLPGS = 3.83 (1 of 3 replicates; controls 0 of 9)
* KSSGSVLYESRNANSVA, WASTRES, QQYHRLPLS = nd (0 of 3 replicates; controls 0 of 9)
* KSSQSVLYESRNRNSVA, SASTRES, QQDHRLPLS = 3.55 (2 of 3 replicates; controls 0 of 9)
* KSSQSSLYESRNQESVA, WASTRES, QQYHRLPLS = nd (0 of 3 replicates; controls 2 of 9)
* KSSISVLYESRNINSVA, WASTRES, QQYHRLPWS = 1.25 (3 of 3 replicates; controls 0 of 9)
* KWSQSVLYESRNPNSVA, WASTRES, QQYTRLPLS = 0.45 (3 of 3 replicates; controls 1 of 9)
* KSSQSVLCESRNVNSVA, WASTRES, CQYHRLPLS = 1.95 (3 of 3 replicates; controls 1 of 9)
* KSSQSVLYESRNENSVA, YASTRES, QGYHRLPLS = 2.14 (3 of 3 replicates; controls 1 of 9)
* KSSQSCLYESRNNDSVA, WASTRES, QQYHRLPLS = 2.62 (3 of 3 replicates; controls 4 of 9)
* KSSQSVLYESRNWNSVA, WAGTRES, QQYHRLPLS = 1.46 (3 of 3 replicates; controls 2 of 9)
* KSSQSVLYESANINSVA, WAKTRES, QQYHRLPLS = 2.65 (3 of 3 replicates; controls 1 of 9)
* KSSQSVLYESRNGNSVA, WASTHES, QQYHRCPLS = nd (0 of 3 replicates; controls 0 of 9)
* KSSQSVLYERNNENSVA, WASTRES, QQYHRLPLS = 0.52 (3 of 3 replicates; controls 0 of 9)
* KSSQSVLYESRNINSVA, WMSHRES, QQYHRLPLS = nd (0 of 3 replicates; controls 2 of 9)
* KSSGSVLYESRNGNCVA, WASTRES, QQYHRLPLS = 2.41 (3 of 3 replicates; controls 2 of 9)
* KSSQSVLYESRNANSVA, WRSTRES, QNYHRLPLS = 4.66 (2 of 3 replicates; controls 4 of 9)
* KSSQLVLYESRNRNSVA, WASTQES, QQYHRLPLS = 3.55 (1 of 3 replicates; controls 0 of 9)
* KSSQSVLYESRIRNSVA, WASTRES, QQYHRLPLS = 1.77 (3 of 3 replicates; controls 7 of 9)
* KSLQSVLYESRNDNSVY, WASTRES, QQYHRLPLS = nd (0 of 3 replicates; controls 0 of 9)
* KSSQSVLYESRNSNSVA, WKSTMES, QQYHRLPLS = nd (0 of 3 replicates; controls 0 of 9)
* KSSQSVFYESRNEYSVA, WASTRES, QQYHRLPLS = 0.78 (3 of 3 replicates; controls 2 of 9)
* KSSQSVLYESRNMDSVA, WAQTRES, QQYHRLPLS = 2.12 (3 of 3 replicates; controls 4 of 9)
* KSSQSVLYESANWNSVA, WASTRES, QQYHRLILS = 3.18 (1 of 3 replicates; controls 0 of 9)
* KSSQSVLYESRNCNSVA, WASTRES, QQYIRLPLM = 1.48 (3 of 3 replicates; controls 3 of 9)
* DSSQSVLYESRNGNSVA, WNSTRES, QQYHRLPLS = 3.77 (2 of 3 replicates; controls 3 of 9)
* KSSQSVQYESRNFNSVA, WASTRES, QQYHRLLLS = nd (0 of 3 replicates; controls 0 of 9)
* KSSQLVLYESRNHNSVA, WASTRES, QQYHRLPIS = nd (0 of 3 replicates; controls 0 of 9)
* KSSQSVLYEERNGNSVA, WASTRSS, QQYHRLPLS = 0.45 (3 of 3 replicates; controls 0 of 9)
* KSSQSVLYETRNPNSVA, WASTRES, QQYHKLPLS = 0.98 (3 of 3 replicates; controls 0 of 9)
* KSSQSVLYESRNSNSVA, WASTAES, QQYHRLPLK = nd (0 of 3 replicates; controls 0 of 9)
* KSSQSVLYESRNGNSGA, WASTRES, QQYHRLVLS = 4.03 (3 of 3 replicates; controls 6 of 9)
* KSSQHVLYESRNENSVA, WASTRES, WQYHRLPLS = nd (0 of 3 replicates; controls 1 of 9)
* KISQSVLYESRNLNSVA, WASTRES, QQYYRLPLS = 1.03 (3 of 3 replicates; controls 6 of 9)
* KSSQSLLYESRNANSVA, WASTRES, QQYHRLPLS = 0.28 (3 of 3 replicates; controls 4 of 9)

5 of these entries, quoted again:

| CDR-L1 | CDR-L2 | CDR-L3 | mean log10 Kd (nM) | detected | empty controls |
|---|---|---|---|---|---|
| KSSQSVLYESRNGNSVA | WASTHES | QQYHRCPLS | nd | 0/3 | 0/9 |
| KSSQSVLCESRNVNSVA | WASTRES | CQYHRLPLS | 1.95 | 3/3 | 1/9 |
| KSLQSVLYESRNDNSVY | WASTRES | QQYHRLPLS | nd | 0/3 | 0/9 |
| KSSGSVLYESRNANSVA | WASTRES | QQYHRLPLS | nd | 0/3 | 0/9 |
| KSSQSVLYESANINSVA | WAKTRES | QQYHRLPLS | 2.65 | 3/3 | 1/9 |